{"sequences": {"note": "Protein sequences, listed by entry. Tags and fused reporters are not part of them.", "UniProt P08659, whole entry": "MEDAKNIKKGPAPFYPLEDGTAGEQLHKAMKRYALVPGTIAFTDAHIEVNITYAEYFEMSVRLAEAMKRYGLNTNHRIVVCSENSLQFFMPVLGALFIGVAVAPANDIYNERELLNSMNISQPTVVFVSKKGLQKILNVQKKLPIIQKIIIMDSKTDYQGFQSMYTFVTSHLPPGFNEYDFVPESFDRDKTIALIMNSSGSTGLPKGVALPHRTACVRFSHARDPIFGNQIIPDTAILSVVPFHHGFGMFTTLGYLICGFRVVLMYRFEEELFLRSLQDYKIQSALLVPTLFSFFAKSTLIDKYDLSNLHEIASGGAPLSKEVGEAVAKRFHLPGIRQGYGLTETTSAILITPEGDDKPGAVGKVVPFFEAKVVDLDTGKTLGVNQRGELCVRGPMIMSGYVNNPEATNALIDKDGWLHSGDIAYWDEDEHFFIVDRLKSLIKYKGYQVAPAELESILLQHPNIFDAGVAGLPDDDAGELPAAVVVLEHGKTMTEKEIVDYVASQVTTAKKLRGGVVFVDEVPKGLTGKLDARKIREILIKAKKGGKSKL"}, "source": "patent US10745365B2", "about": "“Luminogenic and fluorogenic compounds and methods to detect molecules or conditions” (Promega Corporation, priority 2005, dated 2020)", "key": {"[1]": {"target": "T1, QuantiLum Luciferase (firefly luciferase) (Photinus pyralis, UniProt P08659)", "test": "pH dependence of firefly luciferase signal with luciferin or 5′-fluoroluciferin", "assay_type": "biochemical", "parameters": "purchased Promega Corporation El 70"}, "[2]": {"target": "T1, QuantiLum Luciferase (firefly luciferase)", "test": "pH titration of 7′-fluoroluciferin luciferase reaction", "assay_type": "biochemical", "parameters": "purchased Promega Corporation El 70", "description": "For pH titrations, reagent was created containing 100 mM HEPES, 100 mM PIPES, 100 mM Tricine, 1 mM CDTA, 0.5% Tergitol NP-9, 0.03% Benzyl dodecyldimethyl ammonium bromide, 30 mM thiourea, 3 mM ATP, 6 mM magnesium sulfate, and 0.15 mM 7′-fluoroluciferin. All compounds except fluoroluciferin and ATP were purchased from Sigma Chemical. APT was purchased from Amersham/Invitrogen. The pH of solution was adjusted within the range of 8.5 to 6.4. Reactions were initiated by adding equal volumes (0.1 ml) of reagent and DMEM medium (Gibco/Invitrogen) containing 0.1% Prionex® (Pentapharm) and 1.4×10-5 mg/ml QuantiLum™ Luciferase (Promega Corporation).\nLuminescence was measured for 0.5 seconds per well using Turner Biosystems Veritas."}, "[3]": {"target": "T1, QuantiLum Luciferase (firefly luciferase)", "test": "Residual active QuantiLum luciferase after reaction with derivative (Steady Glo)", "assay_type": "biochemical", "parameters": "purchased Promega Corporation El 70"}, "[4]": {"target": "T1, QuantiLum Luciferase (firefly luciferase)", "test": "Light emission of QuantiLum firefly luciferase with luciferin derivatives", "settings": "for Light reading (Turner 20/20) at time 0: 0 min; for Light reading (Turner 20/20) at time 7: 7 min; for Light reading (Turner 20/20) at time 15: 15 min; for Light reading (Turner 20/20) at time 22: 22 min; for Light reading (Turner 20/20) at time 30: 30 min; for Light reading (Turner 20/20) at time 45: 45 min; for Light reading (Turner 20/20) at time 60: 60 min"}}}
{"molecule": "O=C(O)[C@H]1CSC(c2nc3ccc(O)cc3s2)=N1", "note": "[luciferin, (4S)-4,5-dihydro-2-(6-hydroxybenzothiazolyl)-4-thiazolecarboxylic acid, reference compound]", "values": [{"measurement": "Absolute Luminescence", "setting": "[1]; pH 6.900, MOPS", "result": "330,277 RLU"}, {"measurement": "Relative Luminescence (% of 8.3 Luciferin)", "setting": "[1]; pH 6.900, MOPS", "result": 23, "unit": "%"}, {"measurement": "increase of luminescence over the pH range tested", "setting": "[1]; pH 6.9 to 8.3", "result": "~5", "unit": "fold"}, {"measurement": "Absolute Luminescence", "setting": "[1]; pH 7.133, MOPS", "result": "490,814 RLU"}, {"measurement": "Relative Luminescence (% of 8.3 Luciferin)", "setting": "[1]; pH 7.133, MOPS", "result": 34, "unit": "%"}, {"measurement": "Absolute Luminescence", "setting": "[1]; pH 7.296, MOPS", "result": "585,743 RLU"}, {"measurement": "Relative Luminescence (% of 8.3 Luciferin)", "setting": "[1]; pH 7.296, MOPS", "result": 40, "unit": "%"}, {"measurement": "Absolute Luminescence", "setting": "[1]; pH 7.303, HEPES", "result": "482,253 RLU"}, {"measurement": "Relative Luminescence (% of 8.3 Luciferin)", "setting": "[1]; pH 7.303, HEPES", "result": 33, "unit": "%"}, {"measurement": "Absolute Luminescence", "setting": "[1]; pH 7.499, MOPS", "result": "707,832 RLU"}, {"measurement": "Relative Luminescence (% of 8.3 Luciferin)", "setting": "[1]; pH 7.499, MOPS", "result": 48, "unit": "%"}, {"measurement": "Absolute Luminescence", "setting": "[1]; pH 7.521, HEPES", "result": "661,829 RLU"}, {"measurement": "Relative Luminescence (% of 8.3 Luciferin)", "setting": "[1]; pH 7.521, HEPES", "result": 45, "unit": "%"}, {"measurement": "Absolute Luminescence", "setting": "[1]; pH 7.720, HEPES", "result": "815,317 RLU"}, {"measurement": "Relative Luminescence (% of 8.3 Luciferin)", "setting": "[1]; pH 7.720, HEPES", "result": 56, "unit": "%"}, {"measurement": "Absolute Luminescence", "setting": "[1]; pH 7.892, HEPES", "result": "976,654 RLU"}, {"measurement": "Relative Luminescence (% of 8.3 Luciferin)", "setting": "[1]; pH 7.892, HEPES", "result": 67, "unit": "%"}, {"measurement": "pH optima of firefly luciferase reaction", "setting": "[2]", "result": "approximately 8.2"}, {"measurement": "loss of luciferase activity on transformation of substrate", "setting": "[3]; no additive (reactions 3A, 4A)", "result": "does not lead to a large loss of luciferase activity"}, {"measurement": "Light emission from the active enzyme, sample time 0 min", "setting": "[3]; reaction type A: no additive", "result": 183.6}, {"measurement": "Light emission from the active enzyme, sample time 15 min", "setting": "[3]; reaction type A: no additive", "result": 170.7}, {"measurement": "Light emission from the active enzyme, sample time 30 min", "setting": "[3]; reaction type A: no additive", "result": 175.6}, {"measurement": "Light emission from the active enzyme, sample time 45 min", "setting": "[3]; reaction type A: no additive", "result": 164.6}, {"measurement": "Light emission from the active enzyme, sample time 60 min", "setting": "[3]; reaction type A: no additive", "result": 146.5}, {"measurement": "Light emission from the active enzyme, sample time 0 min", "setting": "[3]; reaction type B: +Coenzyme A", "result": 243.6}, {"measurement": "Light emission from the active enzyme, sample time 15 min", "setting": "[3]; reaction type B: +Coenzyme A", "result": 218.2}, {"measurement": "Light emission from the active enzyme, sample time 30 min", "setting": "[3]; reaction type B: +Coenzyme A", "result": 211.1}, {"measurement": "Light emission from the active enzyme, sample time 45 min", "setting": "[3]; reaction type B: +Coenzyme A", "result": 208.2}, {"measurement": "Light emission from the active enzyme, sample time 60 min", "setting": "[3]; reaction type B: +Coenzyme A", "result": 192.1}, {"measurement": "Light emission from the active enzyme, sample time 0 min", "setting": "[3]; reaction type C: +DTT", "result": 188.7}, {"measurement": "Light emission from the active enzyme, sample time 15 min", "setting": "[3]; reaction type C: +DTT", "result": 203.9}, {"measurement": "Light emission from the active enzyme, sample time 30 min", "setting": "[3]; reaction type C: +DTT", "result": 187.9}, {"measurement": "Light emission from the active enzyme, sample time 45 min", "setting": "[3]; reaction type C: +DTT", "result": 191.5}, {"measurement": "Light emission from the active enzyme, sample time 60 min", "setting": "[3]; reaction type C: +DTT", "result": 188.7}, {"measurement": "Light emission from the active enzyme, sample time 0 min", "setting": "[3]; reaction type D: no ATP", "result": 199.9}, {"measurement": "Light emission from the active enzyme, sample time 30 min", "setting": "[3]; reaction type D: no ATP", "result": 190.4}, {"measurement": "Light emission from the active enzyme, sample time 45 min", "setting": "[3]; reaction type D: no ATP", "result": 197.4}, {"measurement": "Light emission from the active enzyme, sample time 60 min", "setting": "[3]; reaction type D: no ATP", "result": 194.2}, {"measurement": "Light reading (Turner 20/20) at time 0", "setting": "[4]; +Co A", "result": "off"}, {"measurement": "Light reading (Turner 20/20) at time 7", "setting": "[4]; +Co A", "result": "off"}, {"measurement": "Light reading (Turner 20/20) at time 15", "setting": "[4]; +Co A", "result": "1,817,884,672"}, {"measurement": "Light reading (Turner 20/20) at time 22", "setting": "[4]; +Co A", "result": "1,207,508,736"}, {"measurement": "Light reading (Turner 20/20) at time 30", "setting": "[4]; +Co A", "result": "1,075,446,272"}, {"measurement": "Light reading (Turner 20/20) at time 45", "setting": "[4]; +Co A", "result": "737,134,016"}, {"measurement": "Light reading (Turner 20/20) at time 60", "setting": "[4]; +Co A", "result": "516,780,608"}, {"measurement": "Light reading (Turner 20/20) at time 0", "setting": "[4]; +DTT", "result": "off"}, {"measurement": "Light reading (Turner 20/20) at time 7", "setting": "[4]; +DTT", "result": "off"}, {"measurement": "Light reading (Turner 20/20) at time 15", "setting": "[4]; +DTT", "result": "off"}, {"measurement": "Light reading (Turner 20/20) at time 22", "setting": "[4]; +DTT", "result": "1,828,845,952"}, {"measurement": "Light reading (Turner 20/20) at time 30", "setting": "[4]; +DTT", "result": "1,369,086,080"}, {"measurement": "Light reading (Turner 20/20) at time 45", "setting": "[4]; +DTT", "result": "882,840,768"}, {"measurement": "Light reading (Turner 20/20) at time 60", "setting": "[4]; +DTT", "result": "640,560,896"}, {"measurement": "Light reading (Turner 20/20) at time 0", "setting": "[4]; No Additive", "result": "off"}, {"measurement": "Light reading (Turner 20/20) at time 7", "setting": "[4]; No Additive", "result": "off"}, {"measurement": "Light reading (Turner 20/20) at time 15", "setting": "[4]; No Additive", "result": "1,920,967,552"}, {"measurement": "Light reading (Turner 20/20) at time 22", "setting": "[4]; No Additive", "result": "1,340,545,280"}, {"measurement": "Light reading (Turner 20/20) at time 30", "setting": "[4]; No Additive", "result": "1,080,656,384"}, {"measurement": "Light reading (Turner 20/20) at time 45", "setting": "[4]; No Additive", "result": "698,897,920"}, {"measurement": "Light reading (Turner 20/20) at time 60", "setting": "[4]; No Additive", "result": "507,915,488"}, {"measurement": "Light reading (Turner 20/20) at time 0", "setting": "[4]; no ATP", "result": "1,013,266"}, {"measurement": "Light reading (Turner 20/20) at time 7", "setting": "[4]; no ATP", "result": "7,266"}, {"measurement": "Light reading (Turner 20/20) at time 15", "setting": "[4]; no ATP", "result": "2,253"}, {"measurement": "Light reading (Turner 20/20) at time 22", "setting": "[4]; no ATP", "result": "248,151"}, {"measurement": "Light reading (Turner 20/20) at time 30", "setting": "[4]; no ATP", "result": "194,980"}, {"measurement": "Light reading (Turner 20/20) at time 45", "setting": "[4]; no ATP", "result": "27,586"}, {"measurement": "Light reading (Turner 20/20) at time 60", "setting": "[4]; no ATP", "result": "22,270"}]}
